Legend:
SPTBN1 = SPTBN1 (UniProt Q01082); assay: Flag-IP from HeLa cell lysate, mass spectrometry of eluate
TUBA1A = TUBA1A (UniProt Q71U36); assay: as above
HSPA8 = HSPA8 (UniProt P11142); assay: as above
ACTG1 [1] = molecular target: ACTG1 (UniProt P63261); assay: as above
ACT7 = ACT7 (UniProt P53492); assay: Flag-IP from HepG2 cell lysate, mass spectrometry of eluate
WDR77 = WDR77 (UniProt Q9BQA1); assay: as above
ACTC1 = ACTC1 (UniProt P68032); assay: as above
ACTG1 [2] = molecular target: ACTG1 (UniProt P63261); assay: as above
DBN1 = DBN1 (UniProt Q16643); assay: as above
ACTB [3] = molecular target: ACTB (UniProt P60709); assay: Flag-IP from HeLa cell lysate, mass spectrometry of eluate
ACTB [4] = molecular target: ACTB (UniProt P60709); assay: Flag-IP from HepG2 cell lysate, mass spectrometry of eluate
TUBB4B = TUBB4B (UniProt P68371); assay: as above

**Q.** “Flag-AtRDR1 (Arabidopsis thaliana RNA-dependent RNA polymerase 1 with Flag tag) (from UniProt Q9LQV2 1-1107) (enzyme)” was tested. Which Length of peptide (SPTBN1) did it give?
**A.** 22

**Q.** And the Length of peptide (TUBA1A)?
**A.** 11

**Q.** What about the Coverage (%) (HSPA8) of the same substance?
**A.** 35%

**Q.** What about the Length of peptide (HSPA8) of the same substance?
**A.** 15

**Q.** What about the Coverage (%) (ACTG1 [1]) of the same substance?
**A.** 50%

**Q.** And the Length of peptide (ACTG1 [1])?
**A.** 13

**Q.** What about the Coverage (%) (ACT7) of the same substance?
**A.** 15%

**Q.** What about the Length of peptide (ACT7) of the same substance?
**A.** 4

**Q.** And the Length of peptide (WDR77)?
**A.** 15

**Q.** What about the Coverage (%) (ACTC1) of the same substance?
**A.** 35%

**Q.** What about the Length of peptide (ACTC1) of the same substance?
**A.** 11

**Q.** What about the Coverage (%) (ACTG1 [2]) of the same substance?
**A.** 73%

**Q.** And the Length of peptide (ACTG1 [2])?
**A.** 22

**Q.** What about the Length of peptide (DBN1) of the same substance?
**A.** 15

**Q.** How did the Coverage (%) (ACTB [3]) turn out when “Flag-OsRDR1 (rice, Oryza sativa, RNA-dependent RNA polymerase 1 with Flag tag) (from UniProt Q0DXS3 1-740) (enzyme)” was run?
**A.** 40%

**Q.** And the Length of peptide (ACTB [3])?
**A.** 10

**Q.** And the Coverage (%) (ACTB [4])?
**A.** 76%

**Q.** And the Length of peptide (ACTB [4])?
**A.** 25

**Q.** And the Coverage (%) (ACTG1 [2])?
**A.** 76%

**Q.** And the Length of peptide (ACTG1 [2])?
**A.** 25

**Q.** What about the Length of peptide (TUBB4B) of the same substance?
**A.** 25
